Reference: paper PMC12142581

By UniProt entry, the sequences of proteins in these tests, tags left out. Where a name states a change or a piece, a line headed by the entry shows the natural chain unless it says otherwise.
UniProt P10275: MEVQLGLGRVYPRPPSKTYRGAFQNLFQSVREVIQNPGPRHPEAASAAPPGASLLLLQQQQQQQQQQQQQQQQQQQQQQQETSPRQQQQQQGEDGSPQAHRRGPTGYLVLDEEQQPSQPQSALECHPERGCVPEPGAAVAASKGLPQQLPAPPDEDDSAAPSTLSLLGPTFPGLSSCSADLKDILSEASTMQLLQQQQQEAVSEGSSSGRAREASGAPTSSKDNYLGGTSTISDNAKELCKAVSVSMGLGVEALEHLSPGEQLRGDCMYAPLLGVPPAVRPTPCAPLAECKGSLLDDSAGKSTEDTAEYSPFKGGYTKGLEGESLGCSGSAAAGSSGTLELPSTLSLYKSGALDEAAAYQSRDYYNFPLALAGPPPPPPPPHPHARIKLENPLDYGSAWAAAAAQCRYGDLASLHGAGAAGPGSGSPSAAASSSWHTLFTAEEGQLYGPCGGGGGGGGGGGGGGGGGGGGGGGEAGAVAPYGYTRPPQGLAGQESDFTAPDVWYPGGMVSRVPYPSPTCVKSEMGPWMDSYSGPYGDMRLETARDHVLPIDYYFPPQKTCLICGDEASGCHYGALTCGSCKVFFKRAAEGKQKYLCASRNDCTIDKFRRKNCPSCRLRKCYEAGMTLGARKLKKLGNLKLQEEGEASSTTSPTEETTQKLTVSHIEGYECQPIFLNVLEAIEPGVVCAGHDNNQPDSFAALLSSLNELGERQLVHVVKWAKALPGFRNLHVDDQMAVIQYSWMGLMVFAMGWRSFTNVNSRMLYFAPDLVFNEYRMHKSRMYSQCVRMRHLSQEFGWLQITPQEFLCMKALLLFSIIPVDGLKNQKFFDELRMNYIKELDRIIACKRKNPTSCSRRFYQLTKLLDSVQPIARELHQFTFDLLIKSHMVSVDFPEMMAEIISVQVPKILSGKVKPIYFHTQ
UniProt P03372, whole entry, looked up: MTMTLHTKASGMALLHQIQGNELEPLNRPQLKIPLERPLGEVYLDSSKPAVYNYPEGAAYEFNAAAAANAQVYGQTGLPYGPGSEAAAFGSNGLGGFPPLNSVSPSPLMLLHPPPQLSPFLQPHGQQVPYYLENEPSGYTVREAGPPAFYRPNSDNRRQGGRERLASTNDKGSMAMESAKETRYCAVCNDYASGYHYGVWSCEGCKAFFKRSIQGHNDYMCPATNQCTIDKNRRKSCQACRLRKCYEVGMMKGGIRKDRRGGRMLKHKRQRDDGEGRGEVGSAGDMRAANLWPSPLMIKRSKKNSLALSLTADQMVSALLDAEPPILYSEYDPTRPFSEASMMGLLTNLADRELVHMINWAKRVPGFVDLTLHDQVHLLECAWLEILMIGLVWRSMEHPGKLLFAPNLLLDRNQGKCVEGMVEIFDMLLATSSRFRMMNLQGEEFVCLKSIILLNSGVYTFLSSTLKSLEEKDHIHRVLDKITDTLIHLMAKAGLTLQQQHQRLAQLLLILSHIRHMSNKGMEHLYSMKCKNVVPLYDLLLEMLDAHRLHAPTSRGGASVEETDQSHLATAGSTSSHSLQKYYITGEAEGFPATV
UniProt P14416, whole entry, looked up: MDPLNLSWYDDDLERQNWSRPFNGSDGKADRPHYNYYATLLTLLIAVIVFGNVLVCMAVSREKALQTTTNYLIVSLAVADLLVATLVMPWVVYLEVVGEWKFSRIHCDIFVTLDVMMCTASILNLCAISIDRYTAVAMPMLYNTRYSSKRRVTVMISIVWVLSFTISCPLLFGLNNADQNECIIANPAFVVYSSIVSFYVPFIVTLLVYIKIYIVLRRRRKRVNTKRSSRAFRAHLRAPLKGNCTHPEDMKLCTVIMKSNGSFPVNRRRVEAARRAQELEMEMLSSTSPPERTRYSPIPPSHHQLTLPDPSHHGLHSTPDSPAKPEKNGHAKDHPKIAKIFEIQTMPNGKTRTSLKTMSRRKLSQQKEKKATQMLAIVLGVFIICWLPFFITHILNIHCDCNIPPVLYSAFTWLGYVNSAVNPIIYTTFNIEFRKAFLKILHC
UniProt P08913, whole entry, looked up: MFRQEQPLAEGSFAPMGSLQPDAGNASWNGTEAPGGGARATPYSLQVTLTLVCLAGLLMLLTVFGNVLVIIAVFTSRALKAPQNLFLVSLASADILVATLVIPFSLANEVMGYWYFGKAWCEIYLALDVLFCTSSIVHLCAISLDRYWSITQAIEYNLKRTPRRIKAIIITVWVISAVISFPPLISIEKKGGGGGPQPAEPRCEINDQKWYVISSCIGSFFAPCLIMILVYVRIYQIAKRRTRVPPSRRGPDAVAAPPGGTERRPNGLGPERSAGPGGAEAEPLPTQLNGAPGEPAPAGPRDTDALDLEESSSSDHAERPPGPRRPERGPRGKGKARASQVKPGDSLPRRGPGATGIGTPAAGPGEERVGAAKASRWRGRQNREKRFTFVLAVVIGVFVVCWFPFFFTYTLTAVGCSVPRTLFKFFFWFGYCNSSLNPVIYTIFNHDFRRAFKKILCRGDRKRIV
UniProt P35372, whole entry, looked up: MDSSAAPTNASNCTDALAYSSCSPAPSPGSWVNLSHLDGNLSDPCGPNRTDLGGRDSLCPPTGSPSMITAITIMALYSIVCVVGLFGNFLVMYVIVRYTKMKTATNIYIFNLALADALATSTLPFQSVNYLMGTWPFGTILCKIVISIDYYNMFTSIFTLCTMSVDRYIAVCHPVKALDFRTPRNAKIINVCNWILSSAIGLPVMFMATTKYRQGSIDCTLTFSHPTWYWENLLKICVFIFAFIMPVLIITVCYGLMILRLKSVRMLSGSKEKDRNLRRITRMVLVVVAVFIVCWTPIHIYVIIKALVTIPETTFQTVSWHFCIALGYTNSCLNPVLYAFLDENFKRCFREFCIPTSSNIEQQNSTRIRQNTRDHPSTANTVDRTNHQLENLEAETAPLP
UniProt Q99720, whole entry, looked up: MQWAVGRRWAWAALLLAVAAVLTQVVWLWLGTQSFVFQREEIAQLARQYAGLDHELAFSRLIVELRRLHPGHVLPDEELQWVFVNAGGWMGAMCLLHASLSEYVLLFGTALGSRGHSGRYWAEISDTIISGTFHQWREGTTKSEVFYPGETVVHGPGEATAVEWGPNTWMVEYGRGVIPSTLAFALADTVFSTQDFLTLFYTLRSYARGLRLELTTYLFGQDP
UniProt P0DMS8, whole entry, looked up: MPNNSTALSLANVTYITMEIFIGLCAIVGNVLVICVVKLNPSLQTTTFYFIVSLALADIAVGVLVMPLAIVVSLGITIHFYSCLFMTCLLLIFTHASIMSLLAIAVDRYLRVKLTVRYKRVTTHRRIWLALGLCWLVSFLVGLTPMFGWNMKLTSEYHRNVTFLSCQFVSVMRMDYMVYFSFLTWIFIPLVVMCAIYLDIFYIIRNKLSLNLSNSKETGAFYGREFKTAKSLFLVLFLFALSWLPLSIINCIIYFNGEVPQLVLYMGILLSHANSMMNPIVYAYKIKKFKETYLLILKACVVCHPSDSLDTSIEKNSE
UniProt P25105: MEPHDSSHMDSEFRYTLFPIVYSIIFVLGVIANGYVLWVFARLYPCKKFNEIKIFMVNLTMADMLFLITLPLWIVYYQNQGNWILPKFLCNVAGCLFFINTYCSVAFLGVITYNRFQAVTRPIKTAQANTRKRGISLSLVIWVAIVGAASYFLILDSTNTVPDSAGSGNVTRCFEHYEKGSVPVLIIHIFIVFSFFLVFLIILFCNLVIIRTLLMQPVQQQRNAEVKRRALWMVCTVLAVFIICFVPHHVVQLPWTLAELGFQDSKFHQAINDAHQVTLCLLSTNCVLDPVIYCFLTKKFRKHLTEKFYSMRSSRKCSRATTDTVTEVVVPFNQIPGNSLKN
UniProt P25021, whole entry, looked up: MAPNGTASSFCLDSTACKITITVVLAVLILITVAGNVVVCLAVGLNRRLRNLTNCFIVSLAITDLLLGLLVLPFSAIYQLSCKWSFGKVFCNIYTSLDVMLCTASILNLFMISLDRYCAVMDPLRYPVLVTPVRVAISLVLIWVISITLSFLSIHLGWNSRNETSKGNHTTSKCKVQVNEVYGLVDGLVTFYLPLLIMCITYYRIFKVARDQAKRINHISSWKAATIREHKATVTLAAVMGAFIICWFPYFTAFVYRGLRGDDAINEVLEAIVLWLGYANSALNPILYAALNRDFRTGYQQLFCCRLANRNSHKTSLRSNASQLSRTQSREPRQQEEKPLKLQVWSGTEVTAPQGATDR
UniProt P43140: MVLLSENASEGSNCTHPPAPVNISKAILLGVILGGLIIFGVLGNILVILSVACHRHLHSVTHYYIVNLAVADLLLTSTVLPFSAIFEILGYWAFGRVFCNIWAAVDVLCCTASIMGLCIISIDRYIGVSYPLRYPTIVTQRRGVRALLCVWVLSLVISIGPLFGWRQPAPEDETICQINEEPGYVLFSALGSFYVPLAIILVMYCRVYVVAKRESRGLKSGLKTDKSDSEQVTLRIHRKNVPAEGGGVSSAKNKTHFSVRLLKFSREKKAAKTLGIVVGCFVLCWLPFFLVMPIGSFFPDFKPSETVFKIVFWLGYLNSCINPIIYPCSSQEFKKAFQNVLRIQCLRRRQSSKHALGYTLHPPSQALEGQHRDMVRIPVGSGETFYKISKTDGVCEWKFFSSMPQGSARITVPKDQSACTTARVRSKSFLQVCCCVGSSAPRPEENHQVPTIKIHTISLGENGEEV
UniProt P02708: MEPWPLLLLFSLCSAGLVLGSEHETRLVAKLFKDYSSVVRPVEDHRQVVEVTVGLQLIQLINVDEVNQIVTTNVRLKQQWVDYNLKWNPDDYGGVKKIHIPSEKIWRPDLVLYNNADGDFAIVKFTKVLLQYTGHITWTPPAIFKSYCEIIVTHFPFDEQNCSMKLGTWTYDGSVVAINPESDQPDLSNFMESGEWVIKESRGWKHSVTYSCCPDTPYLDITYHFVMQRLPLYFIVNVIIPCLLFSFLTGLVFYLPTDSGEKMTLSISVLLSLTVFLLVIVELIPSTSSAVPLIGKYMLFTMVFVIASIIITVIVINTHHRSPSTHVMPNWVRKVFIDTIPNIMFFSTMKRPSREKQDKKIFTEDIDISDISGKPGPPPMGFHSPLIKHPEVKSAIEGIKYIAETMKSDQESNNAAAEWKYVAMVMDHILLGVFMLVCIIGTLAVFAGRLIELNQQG
UniProt P21728, whole entry, looked up: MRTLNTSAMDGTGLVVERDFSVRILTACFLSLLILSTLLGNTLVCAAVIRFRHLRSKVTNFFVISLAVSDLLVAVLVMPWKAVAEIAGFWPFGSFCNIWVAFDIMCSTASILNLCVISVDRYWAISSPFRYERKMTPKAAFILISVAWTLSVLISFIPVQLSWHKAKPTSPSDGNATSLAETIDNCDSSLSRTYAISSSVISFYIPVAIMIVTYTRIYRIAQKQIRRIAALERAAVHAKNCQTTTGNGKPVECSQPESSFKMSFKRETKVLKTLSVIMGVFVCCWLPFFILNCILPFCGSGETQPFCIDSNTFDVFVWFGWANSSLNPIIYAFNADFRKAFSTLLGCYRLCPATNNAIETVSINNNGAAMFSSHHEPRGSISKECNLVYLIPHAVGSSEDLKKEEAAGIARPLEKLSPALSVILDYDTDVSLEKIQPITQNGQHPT
UniProt P35462, whole entry, looked up: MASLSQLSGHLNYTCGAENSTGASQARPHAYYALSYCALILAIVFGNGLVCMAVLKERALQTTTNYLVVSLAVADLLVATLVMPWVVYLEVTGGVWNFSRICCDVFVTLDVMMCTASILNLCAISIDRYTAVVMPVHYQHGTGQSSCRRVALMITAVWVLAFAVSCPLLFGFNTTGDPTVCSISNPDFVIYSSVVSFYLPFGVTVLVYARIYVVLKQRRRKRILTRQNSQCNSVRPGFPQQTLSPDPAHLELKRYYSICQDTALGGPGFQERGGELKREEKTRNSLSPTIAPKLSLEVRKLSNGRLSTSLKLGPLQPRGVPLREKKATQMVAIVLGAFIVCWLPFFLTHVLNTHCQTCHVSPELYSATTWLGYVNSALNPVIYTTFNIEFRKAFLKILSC

What was measured:
Assay in all cases: Lead Profiling Screen
[1] = target: Androgen (Testosterone) (Homo sapiens, UniProt P10275)
[2] = target: Estrogen ERα (Homo sapiens, UniProt P03372)
[3] = target: Dopamine D2S (Homo sapiens, UniProt P14416)
[4] = target: Dopamine D4.2 (Homo sapiens, UniProt P21917, DEL265-296)
[5] = target: Adrenergic α2A (Homo sapiens, UniProt P08913)
[6] = target: Opiate δ1 (OP1, DOP) (Homo sapiens, UniProt P41143)
[7] = target: Cannabinoid CB1 (Homo sapiens, UniProt P21554)
[8] = system: GABAA, Flunitrazepam, Central
[9] = target: Histamine H3 (Homo sapiens, UniProt Q9Y5N1)
[10] = target: Transporter, GABA (Rattus norvegicus, UniProt P23978)
[11] = system: Phorbol Ester
[12] = target: Opiate μ (OP3, MOP) (Homo sapiens, UniProt P35372)
[13] = target: GABAB1A (Homo sapiens, UniProt Q9UBS5)
[14] = target: Sigma σ1 (Homo sapiens, UniProt Q99720)
[15] = target: Adenosine A3 (Homo sapiens, UniProt P0DMS8)
[16] = system: Purinergic P2Y
[17] = system: GABAA, Muscimol, Central
[18] = target: Platelet Activating Factor (PAF) (Homo sapiens, UniProt P25105)
[19] = system: Nicotinic Acetylcholine
[20] = system: Thyroid Hormone
[21] = target: Adrenergic β2 (Homo sapiens, UniProt P07550)
[22] = system: Potassium Channel [KATP]
[23] = target: Adenosine A1 (Homo sapiens, UniProt P30542)
[24] = target: Muscarinic M2 (Homo sapiens, UniProt P08172)
[25] = target: Histamine H1 (Homo sapiens, UniProt P35367)
[26] = target: Epidermal Growth Factor (EGF) (Homo sapiens, UniProt P00533)
[27] = target: Transporter, Serotonin (5-Hydroxytryptamine) (SERT) (Homo sapiens, UniProt P31645)
[28] = target: Adenosine A2A (Homo sapiens, UniProt P29274)
[29] = target: Histamine H2 (Homo sapiens, UniProt P25021)
[30] = target: Adrenergic α1A (Rattus norvegicus, UniProt P43140)
[31] = target: Transporter, Norepinephrine (NET) (Homo sapiens, UniProt P23975)
[32] = system: Calcium Channel L-Type, Benzothiazepine
[33] = target: Nicotinic Acetylcholine α1, Bungarotoxin (Homo sapiens, UniProt P02708+P07510+Q07001)
[34] = target: Dopamine D1 (Homo sapiens, UniProt P21728)
[35] = target: Leukotriene, Cysteinyl CysLT1 (Homo sapiens, UniProt Q9Y271)
[36] = target: Endothelin ETB (Homo sapiens, UniProt P24530)
[37] = system: Calcium Channel L-Type, Dihydropyridine
[38] = target: Tachykinin NK1 (Homo sapiens, UniProt P25103)
[39] = target: Neuropeptide Y Y1 (Homo sapiens, UniProt P25929)
[40] = target: Bradykinin B1 (Homo sapiens, UniProt P46663)
[41] = target: Dopamine D3 (Homo sapiens, UniProt P35462)
[42] = target: Bradykinin B2 (Homo sapiens, UniProt P30411)

Cc1nnc2sc3c(NCc4ccc(C(C)(C)O)cc4)ncnc3c2c1C
% inh at 10 μM [1]: 3%
% inh at 10 μM [2]: 5%
% inh at 10 μM [3]: 11%
% inh at 10 μM [4]: 13%
% inh at 10 μM [5]: -0%
% inh at 10 μM [6]: 5%
% inh at 10 μM [7]: 4%
% inh at 10 μM [8]: 13%
% inh at 10 μM [9]: 21%
% inh at 10 μM [10]: -3%
% inh at 10 μM [11]: -1%
% inh at 10 μM [12]: 4%
% inh at 10 μM [13]: -3%
% inh at 10 μM [14]: -1%
% inh at 10 μM [15]: 17%
% inh at 10 μM [16]: 0%
% inh at 10 μM [17]: 5%
% inh at 10 μM [18]: 4%
% inh at 10 μM [19]: -5%
% inh at 10 μM [20]: -4%
% inh at 10 μM [21]: 6%
% inh at 10 μM [22]: -10%
% inh at 10 μM [23]: 45%
% inh at 10 μM [24]: 9%
% inh at 10 μM [25]: 5%
% inh at 10 μM [26]: 2%
% inh at 10 μM [27]: -10%
% inh at 10 μM [28]: 50%
% inh at 10 μM [29]: -9%
% inh at 10 μM [30]: 19%
% inh at 10 μM [31]: 36%
% inh at 10 μM [32]: 19%
% inh at 10 μM [33]: -2%
% inh at 10 μM [34]: 6%
% inh at 10 μM [35]: 31%
% inh at 10 μM [36]: 8%
% inh at 10 μM [37]: -9%
% inh at 10 μM [38]: -5%
% inh at 10 μM [39]: 13%
% inh at 10 μM [40]: -10%
% inh at 10 μM [41]: 1%
% inh at 10 μM [42]: -7%
